Measurements taken from ChEMBL document CHEMBL5584277, “Identification of 5-Thiocyanatothiazol-2-amines Disrupting WDR5-MYC Protein-Protein Interactions” (ACS Med Chem Lett, 2024).

By UniProt entry, the sequences of proteins in these tests, tags left out. Where a name states a change or a piece, a line headed by the entry shows the natural chain unless it says otherwise.
UniProt P01106: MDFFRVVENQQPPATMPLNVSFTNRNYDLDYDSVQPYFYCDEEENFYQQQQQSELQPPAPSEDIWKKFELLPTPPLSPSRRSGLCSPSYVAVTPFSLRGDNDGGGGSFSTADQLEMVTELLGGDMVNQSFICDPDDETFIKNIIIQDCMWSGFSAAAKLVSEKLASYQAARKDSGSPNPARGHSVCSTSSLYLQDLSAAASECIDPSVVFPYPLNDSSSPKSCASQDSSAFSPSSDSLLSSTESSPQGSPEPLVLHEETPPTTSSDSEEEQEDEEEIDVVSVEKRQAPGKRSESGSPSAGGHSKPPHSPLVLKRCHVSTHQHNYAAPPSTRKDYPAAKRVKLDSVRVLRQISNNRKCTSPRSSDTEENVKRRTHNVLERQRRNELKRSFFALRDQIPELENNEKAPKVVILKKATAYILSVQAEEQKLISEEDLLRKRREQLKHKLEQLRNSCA

Molecular target: WDR5-MYC (Homo sapiens) (UniProt P61964+P01106)
Test: Disruption of WDR5/5-FAM-labelled MYC (261 to 267 residues)(unknown origin) interaction assessed as fold increase in activity incubated for 0.5 to 6 hrs by FP assay relative to control
Assay type: protein assay
Details: time 0.5-6 hrs
Summary of the method: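 Fluorescence polarization with WDR5 and a reporter peptide probe from MYC MbIIIb residues E261–V267. Compounds and WDR5 were incubated for 30 to 360 min before reading. FP signal was recorded over varying compound concentrations and fitted to a hyperbolic function to give Ki. DMSO served as negative control, and free MYC peptide was the quality control.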

Compound | fold change (FC)
N#CSc1sc(N)nc1-c1ccc(O)cc1 | 1.4
CNC(=O)c1ccc(-c2nc(N)sc2SC#N)cc1 | 1.4
